The subject of this assay is LabCyte MELANO-MODEL, human skin three-dimensional model containing melanocytes. Nature of the assay: Melanin production inhibition test in human skin three-dimensional model. Type of assay: cell-based. The settings on record: Melanocyte, 336 h, read-out: concentration at which melanin production inhibition rate reaches 50%. As for the experimental part:
The culture medium and the applied sample solution were exchanged every 2 or 3 days. After the completion of the culture, the percentage of viable cells was measured by an MTT (methylthiazole tetrazolium) assay. Further, a melanin amount was measured.
Melanin amount: The skin cells after the MTT assay were immersed in a reagent obtained by dissolving 1% SDS, 0.05 mM EDTA, and a 10 mM tris-HCl buffer solution (pH 7.2). 3 μL of a 5 mg/mL Proteinase K was added and the solution was heated in a water bath at 45° C. overnight to dissolve the skin. A 30% hydrogen peroxide solution and a 500 mM sodium carbonate solution were added thereto, the solution was mixed well and heated in a water bath at 80° C. for 30 min, and impurities were removed by chloroform/methanol (2/1). At the same time, melanin solutions were prepared by similar operations to prepare a calibration curve, and a melanin amount in the cultured skin cells was determined.

This note sets out measurements from patent US20120189566A1, “EXTERNAL PREPARATION CONTAINING PANTETHINE PHOSPHATE ESTER” (DAIICHI FINE CHEMICAL CO., LTD., priority 2009, published 2012).

Consider `CC(C)(CO)[C@@H](O)C(=O)NCCC(=O)NCCSSCCNC(=O)CCNC(=O)[C@H](O)C(C)(C)CO` [Pantethine, pantethine], for which the IC50 was determined as 5.3 mM.
